Reference: ChEMBL document CHEMBL5523766 (J Med Chem, 2024)

The chains behind the UniProt entries cited, without tags or fusion partners. Where a name states a change or a piece, a line headed by the entry shows the natural chain unless it says otherwise.
UniProt Q13535: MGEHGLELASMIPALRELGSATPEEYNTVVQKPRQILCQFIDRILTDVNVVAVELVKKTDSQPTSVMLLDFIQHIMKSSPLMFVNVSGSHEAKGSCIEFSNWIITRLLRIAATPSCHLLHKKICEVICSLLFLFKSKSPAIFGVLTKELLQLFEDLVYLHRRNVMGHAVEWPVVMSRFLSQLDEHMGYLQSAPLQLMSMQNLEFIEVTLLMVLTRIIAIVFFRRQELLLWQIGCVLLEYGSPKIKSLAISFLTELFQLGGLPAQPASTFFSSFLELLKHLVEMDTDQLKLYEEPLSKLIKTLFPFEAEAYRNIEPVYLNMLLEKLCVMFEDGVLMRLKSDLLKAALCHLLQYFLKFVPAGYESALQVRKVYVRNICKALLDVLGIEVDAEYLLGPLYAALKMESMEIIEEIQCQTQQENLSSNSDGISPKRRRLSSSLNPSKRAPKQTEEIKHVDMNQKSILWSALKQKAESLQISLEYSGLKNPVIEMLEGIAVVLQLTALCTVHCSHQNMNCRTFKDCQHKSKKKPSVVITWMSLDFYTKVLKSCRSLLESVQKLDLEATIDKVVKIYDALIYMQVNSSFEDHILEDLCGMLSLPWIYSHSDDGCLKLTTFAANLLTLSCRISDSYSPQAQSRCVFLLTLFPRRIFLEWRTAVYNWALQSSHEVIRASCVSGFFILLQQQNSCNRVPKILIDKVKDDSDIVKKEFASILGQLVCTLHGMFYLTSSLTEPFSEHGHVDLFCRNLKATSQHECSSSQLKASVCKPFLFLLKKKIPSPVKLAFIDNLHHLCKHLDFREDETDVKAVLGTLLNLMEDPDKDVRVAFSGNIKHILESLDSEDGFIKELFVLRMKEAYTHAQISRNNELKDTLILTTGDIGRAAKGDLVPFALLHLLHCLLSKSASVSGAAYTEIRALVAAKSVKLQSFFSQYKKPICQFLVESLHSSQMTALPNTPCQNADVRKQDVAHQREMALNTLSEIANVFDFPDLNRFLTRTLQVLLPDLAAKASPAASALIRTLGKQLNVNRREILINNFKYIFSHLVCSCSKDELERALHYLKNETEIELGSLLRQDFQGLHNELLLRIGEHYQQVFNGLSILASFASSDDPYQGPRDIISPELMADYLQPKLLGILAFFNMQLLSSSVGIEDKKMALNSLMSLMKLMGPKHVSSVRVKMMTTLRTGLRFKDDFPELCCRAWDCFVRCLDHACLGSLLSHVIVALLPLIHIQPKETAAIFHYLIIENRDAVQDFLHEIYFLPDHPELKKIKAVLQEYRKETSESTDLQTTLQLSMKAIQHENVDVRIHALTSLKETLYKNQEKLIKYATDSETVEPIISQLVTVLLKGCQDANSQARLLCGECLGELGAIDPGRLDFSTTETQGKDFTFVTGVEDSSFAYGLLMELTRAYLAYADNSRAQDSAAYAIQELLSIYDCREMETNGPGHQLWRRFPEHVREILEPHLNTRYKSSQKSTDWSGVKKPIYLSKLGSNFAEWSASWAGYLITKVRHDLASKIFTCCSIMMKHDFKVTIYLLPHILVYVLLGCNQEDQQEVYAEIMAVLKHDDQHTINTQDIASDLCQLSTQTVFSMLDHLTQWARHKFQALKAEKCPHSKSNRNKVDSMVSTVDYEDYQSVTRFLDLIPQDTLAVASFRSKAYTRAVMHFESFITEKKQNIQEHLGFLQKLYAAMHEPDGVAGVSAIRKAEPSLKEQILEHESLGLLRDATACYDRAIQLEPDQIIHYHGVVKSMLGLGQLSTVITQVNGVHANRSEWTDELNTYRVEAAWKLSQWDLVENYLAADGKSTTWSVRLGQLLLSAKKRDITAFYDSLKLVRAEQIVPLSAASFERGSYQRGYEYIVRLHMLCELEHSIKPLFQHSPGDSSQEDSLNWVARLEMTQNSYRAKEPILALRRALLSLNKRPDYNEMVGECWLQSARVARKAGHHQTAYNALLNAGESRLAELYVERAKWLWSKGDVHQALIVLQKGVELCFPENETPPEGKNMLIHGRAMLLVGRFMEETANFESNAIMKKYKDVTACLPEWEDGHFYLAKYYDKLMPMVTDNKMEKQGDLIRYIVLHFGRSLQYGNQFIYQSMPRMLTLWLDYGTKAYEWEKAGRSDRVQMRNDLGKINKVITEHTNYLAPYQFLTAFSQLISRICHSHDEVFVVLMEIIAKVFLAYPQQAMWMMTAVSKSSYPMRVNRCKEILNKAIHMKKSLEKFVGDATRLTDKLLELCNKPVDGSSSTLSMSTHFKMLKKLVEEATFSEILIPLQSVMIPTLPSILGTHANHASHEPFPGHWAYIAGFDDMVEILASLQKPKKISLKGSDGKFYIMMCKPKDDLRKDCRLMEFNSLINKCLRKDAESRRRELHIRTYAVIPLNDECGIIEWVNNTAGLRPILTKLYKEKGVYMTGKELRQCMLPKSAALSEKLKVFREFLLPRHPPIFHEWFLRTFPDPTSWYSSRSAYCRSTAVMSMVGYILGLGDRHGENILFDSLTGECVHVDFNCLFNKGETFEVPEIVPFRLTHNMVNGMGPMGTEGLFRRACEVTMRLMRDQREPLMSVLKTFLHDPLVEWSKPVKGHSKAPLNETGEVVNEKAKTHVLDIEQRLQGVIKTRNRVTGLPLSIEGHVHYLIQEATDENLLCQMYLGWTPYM

Molecular target: Serine/threonine-protein kinase ATR (Homo sapiens, UniProt Q13535)
Experiment: Inhibition of ATR in human Granta-519 cells assessed as downregulation of niraparib-induced CHKI phosphorylation at 2 uM in presence of PARP inhibitor niraparib by Western blot analysis
Assay type: cell-based

**Q.** For `C[C@@H]1COCCN1c1nc(-c2ccnc3[nH]ccc23)nc2c1ccn2S(C)(=O)=O`, which inhibition is on record?
**A.** The inhibition was “Active”.

Activity calls are given as the source filed them. The rule behind the calls is not given here.
